{"sequences": {"note": "Chains of the proteins cited; added tags and fusions are not shown.", "UniProt P32300, whole entry": "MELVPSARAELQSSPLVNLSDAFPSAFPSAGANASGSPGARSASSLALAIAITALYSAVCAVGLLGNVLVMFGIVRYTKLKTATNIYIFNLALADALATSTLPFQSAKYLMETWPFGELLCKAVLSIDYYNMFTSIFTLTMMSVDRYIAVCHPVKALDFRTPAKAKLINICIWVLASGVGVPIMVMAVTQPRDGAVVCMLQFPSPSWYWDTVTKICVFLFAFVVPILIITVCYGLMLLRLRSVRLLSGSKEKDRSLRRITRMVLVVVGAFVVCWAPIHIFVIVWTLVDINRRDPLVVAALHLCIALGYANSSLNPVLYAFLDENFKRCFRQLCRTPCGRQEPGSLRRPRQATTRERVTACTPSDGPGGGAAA"}, "source": "patent US9107852B2", "about": "“Uses of agonists of delta opioid receptor in cosmetic and dermocosmetic field” (Induchem Holding AG, priority 2012, dated 2015)", "biological_target": "T1, delta2 opioid receptor (Mus musculus, UniProt P32300)", "T1 construct": "host or cells: unnamed cells 'bearing the delta2 opioid receptor'", "assay": "Agonist effect at the delta2 opioid receptor (DOP), cell impedance", "assay_type": "cell-based", "conditions": "cells bearing delta2 opioid receptor", "experimental": "Frozen spinach leaves were thawed and disrupted in fine particles a blender. This juice was further treated with ultrasounds to disrupt cells and proteins were recovered by acidic precipitation. These proteins were then digested by several enzymes, including pepsin and papain. The hydrolysate was purified (ultrafiltration), fractionated and stored before testing. Meanwhile, synthetic peptides were ordered from a manufacturer. The peptides and the hydrolysates were tested on cells bearing the delta2 opioid receptor and cell impedance was measured to evaluate the binding activity of the tested compounds (Law and Loh, 1993).\nThe results were expressed as a percent of control specific agonist response (DPDPE (SEQ ID No 27) was used for this purpose) ((measured specific response/control specific agonist response)×100) obtained in the presence of the test compounds.\nThe EC50 values (concentration producing a half-maximal specific response) and IC50 values (concentration causing a half-maximal inhibition of the control specific agonist response) were determined by non-linear regression analysis of the concentration-response curves generated with mean replicate values using Hill equation curve fitting (Y=D+[(A D)/(1+(C/C50)nH)], where Y=specific response, D=minimum specific response, A=maximum specific response, C=compound concentration, and C50=EC50 or IC50, and nH=slope factor).", "data": [{"substance": "D-Penicillamine(2,5)-enkephalin [DPDPE, reference compound]", "values": [{"measurement": "EC50", "result": 0.59, "unit": "nM"}]}]}
